According to ChEMBL document CHEMBL4376823, “The discovery of a potent and selective third-generation EGFR kinase inhibitor as a therapy for EGFR L858R/T790M double mutant non-small cell lung cancer” (Eur J Med Chem, 2019):

Assays:
Homo sapiens [1] = species on record: Homo sapiens; assay: Selectivity index, ratio of IC50 for recombinant human GST-tagged EGFR (668 to 1210 residues) expressed in baculovirus expression system to IC50 for recombinant human GST-tagged EGFR T790M/L858R expressed in baculovirus expression system
Homo sapiens [2] = species on record: Homo sapiens; assay: Selectivity index, ratio of EC50 for inhibition of EGFR in human NCI-H292 cells to EC50 for inhibition of EGFR T790M/L858R in human NCI-H1975 cells; type: cell-based

Row | SMILES | Ratio IC50 (Homo sapiens [1]) | Ratio EC50 (Homo sapiens [2])
1 | C=CC(=O)Nc1cc(Nc2nccc(-c3cn(C)c4ccccc34)n2)c(OC)cc1SCCN(C)C | 30.2 | 
2 | C=CC(=O)Nc1cc(Nc2nccc(-c3cn(C)c4ccccc34)n2)c(OC)cc1N(C)CCSC | 6.65 | 
3 | C=CC(=O)Nc1cc(Nc2nccc(-c3cn(C)c4ccccc34)n2)c(OC)cc1N1CC[S+]([O-])CC1 | 5.61 | 
4 | C=CC(=O)Nc1cc(Nc2nccc(-c3cn(C)c4ccccc34)n2)c(OC)cc1[S+]([O-])CCN(C)C (racemic) | 49.8 | 
5 | C=CC(=O)Nc1cc(Nc2nccc(-c3cn(C)c4ccccc34)n2)c(OC)cc1N(C)CCCl | 16.2 | 
6 | C=CC(=O)Nc1cc(Nc2nccc(-c3cn(C)c4ccccc34)n2)c(OC)cc1N1CCSCC1 | 8.16 | 
7 | C=CC(=O)Nc1cc(Nc2nccc(-c3cn(C)c4ccccc34)n2)c(OC)cc1N1CCS(=O)(=O)CC1 | 8.92 | 
8 | C=CC(=O)Nc1cc(Nc2nccc(-c3cn(C)c4ccccc34)n2)c(OC)cc1[S+]([O-])CCN(C)C (single isomer, unassigned; (-)) | 55.9 | 12.8
9 | C=CC(=O)Nc1cc(Nc2nccc(-c3cn(C)c4ccccc34)n2)c(OC)cc1[S+]([O-])CCN(C)C (stereo in doubt; (+)-4i) | 53.9 | 
10 | C=CC(=O)Nc1cc(Nc2nccc(-c3cn(C)c4ccccc34)n2)c(OC)cc1N(C)CC[S+](C)[O-] (stereo unspecified) | 16.6 | 
